Experimental data reported in patent publication US20090172842.

By UniProt entry, the sequences of proteins in these tests, tags left out. Residues count along the entry.
UniProt P69249, 58-180: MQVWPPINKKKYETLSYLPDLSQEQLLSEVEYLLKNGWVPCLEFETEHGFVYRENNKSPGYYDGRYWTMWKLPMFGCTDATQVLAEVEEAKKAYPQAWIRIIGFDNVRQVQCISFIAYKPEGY

Biological target: endogenous tobacco RUBISCO small subunit (UniProt P69249)

Q: For “Amaranthus edulis RUBISCO large subunit with C-terminal 6-His tag, product of the chloroplast transgene cpAErbcL (pTCP103 tobacco)”, which RUBISCO Activity (RuBP-dependent 14CO2 fixation), pTCP103-1 tobacco crude extract is on record?
A: Its RUBISCO Activity (RuBP-dependent 14CO2 fixation), pTCP103-1 tobacco crude extract is 0.15 mU/mg.

Q: And the RUBISCO Activity (RuBP-dependent 14CO2 fixation), pTCP103-1 tobacco purified RUBISCO?
A: The RUBISCO Activity (RuBP-dependent 14CO2 fixation), pTCP103-1 tobacco purified RUBISCO was 4.6 mU/mg.
